{
  "sequences": {"note": "Protein sequences, listed by entry. Tags and fused reporters are not part of them.", "UniProt E9Q401, whole entry": "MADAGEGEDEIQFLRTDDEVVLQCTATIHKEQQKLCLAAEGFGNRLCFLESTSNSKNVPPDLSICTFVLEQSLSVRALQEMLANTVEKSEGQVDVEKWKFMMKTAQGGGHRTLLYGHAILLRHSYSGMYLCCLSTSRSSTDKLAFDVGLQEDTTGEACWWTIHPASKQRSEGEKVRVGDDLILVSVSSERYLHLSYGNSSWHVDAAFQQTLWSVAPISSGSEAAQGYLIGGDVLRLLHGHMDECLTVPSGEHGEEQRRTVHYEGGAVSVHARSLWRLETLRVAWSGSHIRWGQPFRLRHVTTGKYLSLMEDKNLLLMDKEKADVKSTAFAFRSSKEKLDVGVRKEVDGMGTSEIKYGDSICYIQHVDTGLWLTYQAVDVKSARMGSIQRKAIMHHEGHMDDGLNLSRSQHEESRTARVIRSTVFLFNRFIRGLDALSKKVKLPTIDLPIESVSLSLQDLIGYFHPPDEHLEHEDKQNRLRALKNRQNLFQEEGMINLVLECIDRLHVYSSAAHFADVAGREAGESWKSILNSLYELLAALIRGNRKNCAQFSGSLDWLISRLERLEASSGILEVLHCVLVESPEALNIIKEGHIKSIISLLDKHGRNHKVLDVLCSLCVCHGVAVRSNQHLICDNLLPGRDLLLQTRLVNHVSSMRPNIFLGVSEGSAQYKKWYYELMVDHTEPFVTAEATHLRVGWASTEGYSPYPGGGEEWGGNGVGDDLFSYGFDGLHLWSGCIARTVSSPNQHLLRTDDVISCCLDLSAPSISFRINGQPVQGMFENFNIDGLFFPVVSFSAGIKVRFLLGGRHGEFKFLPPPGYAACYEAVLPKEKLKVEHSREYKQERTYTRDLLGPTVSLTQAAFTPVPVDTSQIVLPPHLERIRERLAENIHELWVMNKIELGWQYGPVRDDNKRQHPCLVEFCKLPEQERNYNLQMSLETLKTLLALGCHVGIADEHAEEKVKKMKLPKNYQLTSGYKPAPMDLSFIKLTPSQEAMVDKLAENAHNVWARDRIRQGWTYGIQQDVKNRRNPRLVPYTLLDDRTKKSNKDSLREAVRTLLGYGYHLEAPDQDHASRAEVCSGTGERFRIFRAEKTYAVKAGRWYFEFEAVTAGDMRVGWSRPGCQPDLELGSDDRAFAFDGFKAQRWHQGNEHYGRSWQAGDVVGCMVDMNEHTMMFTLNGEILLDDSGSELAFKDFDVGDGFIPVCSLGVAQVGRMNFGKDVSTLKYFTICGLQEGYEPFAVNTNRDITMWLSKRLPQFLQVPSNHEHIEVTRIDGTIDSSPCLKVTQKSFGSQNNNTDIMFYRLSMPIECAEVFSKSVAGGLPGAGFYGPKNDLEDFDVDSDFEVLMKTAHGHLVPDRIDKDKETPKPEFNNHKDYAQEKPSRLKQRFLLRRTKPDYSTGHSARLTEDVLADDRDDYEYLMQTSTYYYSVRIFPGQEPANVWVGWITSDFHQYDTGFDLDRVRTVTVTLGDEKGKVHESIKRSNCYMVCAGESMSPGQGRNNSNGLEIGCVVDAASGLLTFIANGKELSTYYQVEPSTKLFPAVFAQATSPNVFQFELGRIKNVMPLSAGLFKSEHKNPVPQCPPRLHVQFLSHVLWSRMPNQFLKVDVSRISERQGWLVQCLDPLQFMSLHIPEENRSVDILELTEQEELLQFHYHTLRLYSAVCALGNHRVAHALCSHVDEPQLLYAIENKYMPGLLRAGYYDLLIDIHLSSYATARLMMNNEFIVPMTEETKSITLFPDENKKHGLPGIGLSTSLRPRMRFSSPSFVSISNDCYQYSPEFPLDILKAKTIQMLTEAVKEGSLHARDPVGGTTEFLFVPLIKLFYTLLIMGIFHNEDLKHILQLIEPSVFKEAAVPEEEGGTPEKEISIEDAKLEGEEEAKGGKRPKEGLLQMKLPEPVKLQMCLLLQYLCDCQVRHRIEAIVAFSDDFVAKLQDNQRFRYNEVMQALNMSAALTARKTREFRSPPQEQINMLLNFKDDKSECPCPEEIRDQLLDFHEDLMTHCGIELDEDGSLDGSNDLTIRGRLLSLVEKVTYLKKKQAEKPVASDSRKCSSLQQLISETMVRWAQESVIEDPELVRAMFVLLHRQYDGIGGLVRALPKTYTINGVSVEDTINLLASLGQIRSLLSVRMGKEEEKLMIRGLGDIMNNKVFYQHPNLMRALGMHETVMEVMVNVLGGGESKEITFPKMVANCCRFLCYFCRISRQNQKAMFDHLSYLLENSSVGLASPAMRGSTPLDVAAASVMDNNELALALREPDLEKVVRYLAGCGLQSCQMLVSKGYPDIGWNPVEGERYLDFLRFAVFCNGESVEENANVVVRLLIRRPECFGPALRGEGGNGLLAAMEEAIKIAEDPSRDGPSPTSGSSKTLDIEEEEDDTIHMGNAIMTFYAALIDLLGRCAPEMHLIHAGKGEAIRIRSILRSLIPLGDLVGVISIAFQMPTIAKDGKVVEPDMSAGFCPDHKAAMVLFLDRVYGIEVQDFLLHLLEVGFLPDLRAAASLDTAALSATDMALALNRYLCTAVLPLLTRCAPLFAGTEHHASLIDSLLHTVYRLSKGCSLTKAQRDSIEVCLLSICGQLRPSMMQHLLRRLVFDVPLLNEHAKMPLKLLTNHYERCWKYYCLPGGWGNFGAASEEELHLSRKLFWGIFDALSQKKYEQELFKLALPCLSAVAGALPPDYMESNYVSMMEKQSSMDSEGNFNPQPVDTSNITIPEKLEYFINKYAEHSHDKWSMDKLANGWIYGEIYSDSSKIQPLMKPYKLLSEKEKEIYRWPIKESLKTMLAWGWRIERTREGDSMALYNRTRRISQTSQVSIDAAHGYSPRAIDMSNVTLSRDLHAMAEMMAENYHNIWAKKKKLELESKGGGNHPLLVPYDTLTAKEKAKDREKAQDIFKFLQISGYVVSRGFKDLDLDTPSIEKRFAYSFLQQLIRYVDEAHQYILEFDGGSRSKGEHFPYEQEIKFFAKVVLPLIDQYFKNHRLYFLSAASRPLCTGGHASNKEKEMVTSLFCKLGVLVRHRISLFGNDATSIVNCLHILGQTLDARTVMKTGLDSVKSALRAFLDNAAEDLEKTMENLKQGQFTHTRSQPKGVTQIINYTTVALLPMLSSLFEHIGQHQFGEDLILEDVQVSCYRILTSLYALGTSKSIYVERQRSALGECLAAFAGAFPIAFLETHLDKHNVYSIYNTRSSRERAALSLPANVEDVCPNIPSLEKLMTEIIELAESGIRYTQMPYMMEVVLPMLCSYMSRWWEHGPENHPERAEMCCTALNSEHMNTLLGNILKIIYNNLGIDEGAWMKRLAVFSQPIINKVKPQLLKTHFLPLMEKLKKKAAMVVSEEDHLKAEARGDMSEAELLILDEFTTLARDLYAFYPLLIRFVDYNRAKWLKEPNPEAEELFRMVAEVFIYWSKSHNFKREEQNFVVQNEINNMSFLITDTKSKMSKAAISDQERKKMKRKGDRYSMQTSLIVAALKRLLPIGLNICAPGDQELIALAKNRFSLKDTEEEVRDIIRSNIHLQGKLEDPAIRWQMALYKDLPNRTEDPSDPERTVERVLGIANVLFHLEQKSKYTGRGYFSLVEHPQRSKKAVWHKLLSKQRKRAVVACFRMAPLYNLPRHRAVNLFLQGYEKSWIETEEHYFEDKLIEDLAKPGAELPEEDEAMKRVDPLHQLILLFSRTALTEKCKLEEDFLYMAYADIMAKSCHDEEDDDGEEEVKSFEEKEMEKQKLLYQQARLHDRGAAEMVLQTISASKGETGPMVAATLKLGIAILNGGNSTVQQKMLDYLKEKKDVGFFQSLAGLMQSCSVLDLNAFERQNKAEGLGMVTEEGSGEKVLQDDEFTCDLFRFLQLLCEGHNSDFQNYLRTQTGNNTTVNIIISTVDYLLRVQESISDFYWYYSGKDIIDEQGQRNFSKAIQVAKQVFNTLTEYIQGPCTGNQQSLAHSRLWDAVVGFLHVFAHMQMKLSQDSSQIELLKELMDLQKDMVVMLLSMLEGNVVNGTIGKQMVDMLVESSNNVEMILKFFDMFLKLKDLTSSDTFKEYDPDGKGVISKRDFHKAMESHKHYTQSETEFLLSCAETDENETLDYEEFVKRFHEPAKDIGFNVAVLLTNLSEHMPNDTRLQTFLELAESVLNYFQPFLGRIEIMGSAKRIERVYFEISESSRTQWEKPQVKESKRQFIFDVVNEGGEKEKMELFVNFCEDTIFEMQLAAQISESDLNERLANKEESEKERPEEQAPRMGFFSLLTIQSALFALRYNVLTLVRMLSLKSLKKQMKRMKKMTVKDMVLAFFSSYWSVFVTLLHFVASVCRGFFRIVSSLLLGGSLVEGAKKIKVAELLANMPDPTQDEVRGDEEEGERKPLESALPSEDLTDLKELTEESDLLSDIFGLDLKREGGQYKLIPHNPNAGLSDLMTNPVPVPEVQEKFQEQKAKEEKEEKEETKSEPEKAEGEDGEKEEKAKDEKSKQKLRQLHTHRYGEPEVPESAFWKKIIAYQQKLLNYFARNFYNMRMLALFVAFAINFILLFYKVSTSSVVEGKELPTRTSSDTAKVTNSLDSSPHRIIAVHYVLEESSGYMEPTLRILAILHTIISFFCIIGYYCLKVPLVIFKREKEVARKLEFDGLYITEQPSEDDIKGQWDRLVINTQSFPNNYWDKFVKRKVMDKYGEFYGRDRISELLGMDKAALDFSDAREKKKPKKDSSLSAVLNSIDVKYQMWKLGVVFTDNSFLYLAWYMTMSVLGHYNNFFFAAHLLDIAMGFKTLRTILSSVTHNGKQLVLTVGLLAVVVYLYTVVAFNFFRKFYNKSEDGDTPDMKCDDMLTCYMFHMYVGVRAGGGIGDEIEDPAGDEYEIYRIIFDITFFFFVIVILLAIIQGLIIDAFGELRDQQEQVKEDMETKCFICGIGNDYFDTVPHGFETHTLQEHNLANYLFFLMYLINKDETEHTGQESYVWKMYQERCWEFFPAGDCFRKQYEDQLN"},
  "source": "paper PMC10726367",
  "about": "“1,4-Benzothiazepines with Cyclopropanol Groups and Their Structural Analogues Exhibit Both RyR2-Stabilizing and SERCA2a-Stimulating Activities” (Journal of Medicinal Chemistry, 2023)",
  "molecular_target": "T1, RyR2 (Mus musculus, UniProt E9Q401)",
  "T1 construct": "expressed in transfected cells; host or cells: HEK-293 cells stably expressing R-CEPIA1er with doxycycline-inducible WT RyR2",
  "assay": "Time-lapse [Ca2+]ER assay (RyR2 R-CEPIA1er assay) in HEK-293 cells with inducible WT RyR2",
  "assay_type": "cell-based",
  "source_text": "To assess the functional potency of novel agents for modulating RyR2 channel activity, we measured changes in Ca^2+ levels in ER of HEK-293 cells with inducible expression of wild-type RyR2 (WT RyR2).[33],[34] Because the expression of WT RyR2 introduces an additional spontaneous Ca^2+ leak from the ER, these cells are suitable for our purpose of testing potential RyR2 stabilizers.[35] The cells additionally stably express the Ca^2+ fluorescence indicator R-CEPIA1er, which is a genetically encoded sensor protein of Ca^2+ in the ER (the cell line was a gift from T. Murayama, Department of Pharmacology, Juntendo University School of Medicine, Tokyo, Japan).[36]\nThe addition of these compounds, which are known to inhibit excessive cardiac RyR2 activity, should reduce Ca^2+ leak from the ER, thus increasing the R-CEPIA1er fluorescence.\nThe fluorescence plate reader [Ca^2+]ER assay was performed according to the slightly modified protocol of Murayama and Kurebayashi.[36] […] After the cells were inducted with doxycycline for 24 h, changes in ER calcium concentrations [Ca^2+]ER were measured on a multiwell plate reader TECAN Spark 20 M at 37 °C. […] The time courses were recorded in each well. Fluorescence was evoked by a 560 nm excitation wavelength and collected in a bottom-read mode at 610 nm. […]\nThe dose–response curves were calculated using the software package GraphPad Prism version 8.3.1. […]",
  "data": [
    {"smiles": "COc1ccc2c(c1)CN(C)CCS2", "note": "[S107, 4-methyl-7-methoxy-2,3,4,5-tetrahydro-1,4-benzothiazepine, reference compound]", "values": [
      {"measurement": "effect on [Ca2+]ER / R-CEPIA1er fluorescence (F/F0)", "value": "increase in R-CEPIA1er fluorescence"}
    ]}
  ]
}
